In paper PMC8861615, “Searching for plant-derived antivirals against dengue virus and Zika virus” (Virology Journal, 2022):

Columns and labels:
[1] = Cytotoxicity (CC50) by MTT method in BHK-21 cells; format: cell-based; conditions: hamster, compounds
Method: (§1) Compounds and selected extracts that tested positive for anti-ZIKV or anti-DENV-2 activity at the screening step had their CC50 determined by using an 8‐point dose range in 96 well microplate containing Vero or BHK-21 cell monolayers. Cell viability was observed by optic microscopy and measured by the MTT method as described. The experiments were performed in duplicate and repeated at least three times.
(§2) Bioassay data were normalized to untreated uninfected cells and the EC50 and CC50 values were obtained using GraphPad Prism 5 based on nonlinear logistic regression of the experimental dose–response curves. The values correspond to three independent assays' average and standard deviation with at least 8 sample distinct concentrations. The CC50 and EC50 values ratio was used as a selectivity index (SI). The extracts and compounds with higher SI values were considered the most promising and selected for further investigation if available in sufficient quantities.

[2] = Cytotoxicity (CC50) by MTT method in Vero cells; format: cell-based; conditions: African green monkey, compounds
Method: as §1, §2

## O=C1N[C@@H]2C(=C[C@H](O)[C@@H](O)[C@H]2O)c2cc3c(c(O)c21)OCO3 [Narciclasine]
[1]
  CC50: 0.09 µM
[2]
  CC50: 0.12 µM
